The assay addresses T1, Betaine--homocysteine S-methyltransferase 1 (Homo sapiens, UniProt Q93088).
T1 sequence (Q93088 whole entry): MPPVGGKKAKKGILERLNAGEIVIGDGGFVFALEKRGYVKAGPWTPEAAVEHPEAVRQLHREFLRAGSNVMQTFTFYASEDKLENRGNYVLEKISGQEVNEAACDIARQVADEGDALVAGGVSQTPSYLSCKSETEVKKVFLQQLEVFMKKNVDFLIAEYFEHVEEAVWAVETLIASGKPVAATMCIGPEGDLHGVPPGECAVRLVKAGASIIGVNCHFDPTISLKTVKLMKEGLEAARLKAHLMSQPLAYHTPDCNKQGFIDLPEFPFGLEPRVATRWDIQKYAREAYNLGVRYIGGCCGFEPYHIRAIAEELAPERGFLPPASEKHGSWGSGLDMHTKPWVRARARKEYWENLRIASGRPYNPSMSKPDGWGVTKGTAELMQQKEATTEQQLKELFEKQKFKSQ
The experiment in a line: Inhibition of human recombinant BHMT using N-methyl-[14C]-betaine/D,L-homocysteine as substrate after 30 mins by scintiillation counting analysis. An outline of the steps:
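Human recombinant BHMT assayed in pH 7.5 buffer with 2 mM betaine and 1 mM D,L-homocysteine. Each IC50 data point was run in duplicate. IC50 values came from three separate assays and are given ± SEM, n = 3.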

pIC50: −log10 of the molar value.

A word on the pIC50: it is the negative decadic logarithm of the IC50, by convention in mol/L. On to `NC(CCSCCCCC(=O)O)C(=O)O` (racemic), for which the pIC50 was 7.03.

These data come from ChEMBL document CHEMBL2401719, “The development of a new class of inhibitors for betaine-homocysteine S-methyltransferase” (Eur J Med Chem, 2013).
